Assay results: ChEMBL document CHEMBL4011652, “Discovery of Novel Potent Reversible and Irreversible Myeloperoxidase Inhibitors Using Virtual Screening Procedure” (J Med Chem, 2017)
Calls of active or inactive are those of the source. No cut-off for these calls is given here.

Tests used:
[1] = biological target: T1, Myeloperoxidase (Homo sapiens) (UniProt P05164); experiment: Inhibition of recombinant MPO (unknown origin) assessed as reduction in TMB peroxidation by measuring residual activity at 5 uM in absence of H2O2 incubated for 5 mins followed by 100 fold enzyme dilution relative to control
T1 sequence (whole entry): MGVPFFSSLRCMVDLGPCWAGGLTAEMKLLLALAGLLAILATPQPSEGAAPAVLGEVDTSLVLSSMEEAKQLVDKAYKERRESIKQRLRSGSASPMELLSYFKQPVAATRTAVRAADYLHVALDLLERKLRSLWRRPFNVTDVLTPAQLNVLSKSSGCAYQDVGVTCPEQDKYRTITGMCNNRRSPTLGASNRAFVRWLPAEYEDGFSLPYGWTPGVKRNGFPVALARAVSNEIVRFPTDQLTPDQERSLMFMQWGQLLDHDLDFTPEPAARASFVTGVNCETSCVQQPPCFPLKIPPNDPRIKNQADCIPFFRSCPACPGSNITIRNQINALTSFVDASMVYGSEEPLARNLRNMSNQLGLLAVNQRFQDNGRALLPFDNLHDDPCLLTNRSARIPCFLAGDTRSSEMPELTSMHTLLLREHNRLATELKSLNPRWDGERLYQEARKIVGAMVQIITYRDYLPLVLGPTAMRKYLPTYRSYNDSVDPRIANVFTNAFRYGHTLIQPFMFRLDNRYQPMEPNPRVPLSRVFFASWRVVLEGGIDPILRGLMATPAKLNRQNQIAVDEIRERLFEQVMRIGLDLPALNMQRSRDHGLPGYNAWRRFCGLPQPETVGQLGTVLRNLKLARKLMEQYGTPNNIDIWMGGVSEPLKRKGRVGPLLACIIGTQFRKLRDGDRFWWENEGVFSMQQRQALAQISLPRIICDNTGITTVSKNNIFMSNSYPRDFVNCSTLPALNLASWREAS

[2] = biological target: T1, Myeloperoxidase (Homo sapiens); experiment: Inhibition of recombinant MPO (unknown origin) assessed as reduction in TMB peroxidation by measuring residual activity at 5 uM in presence of H2O2 incubated for 5 mins followed by 100 fold enzyme dilution relative to control
[3] = biological target: T1, Myeloperoxidase (Homo sapiens); experiment: Inhibition of recombinant MPO (unknown origin) assessed as reduction in TMB peroxidation by measuring residual activity at 5 uM in presence of H2O2 and NaCl incubated for 5 mins followed by 100 fold enzyme dilution relative to control
[4] = biological target: T1, Myeloperoxidase (Homo sapiens); experiment: Reversible inhibition of recombinant MPO (unknown origin) assessed as reduction in TMB peroxidation at 5 uM in presence of NaCl and tyrosine incubated for 5 mins followed by H2O2 addition measured after 10 mins by spectrophotometric method
[5] = biological target: T1, Myeloperoxidase (Homo sapiens); experiment: Inhibition of MPO (unknown origin) assessed as apparent bi-molecular rate constant for PorFe(4)=O radical reduction by stopped-flow spectroscopic analysis
[6] = biological target: T1, Myeloperoxidase (Homo sapiens); experiment: Inhibition of MPO (unknown origin) assessed as apparent bi-molecular rate constant for PorFe(4)-OH reduction by stopped-flow spectroscopic analysis

CCN(CC)CCNC(=O)c1cc(Cl)c(N)cc1OC [METOCLOPRAMIDE]
Activity [1]: 91%
Activity [2]: 86%
Activity [3]: 83%
inhibition [4]: Active
Kapp [5]: 2.6 ×10⁶ /M/s
Kapp [6]: 180 M⁻¹ s⁻¹
